Assay [1] is filed under the species Homo sapiens. Description: Binding affinity to human recombinant FAK P410G mutant (amino acids 410-689) expressed in Escherichia coli, BL21 (DE3) assessed as association rate constant by SPR assay. (SPR reads the build-up and loss of mass on a sensor chip optically.)
The species entered for assay [2] is Homo sapiens. Description: Binding affinity to human recombinant FAK P410G mutant (amino acids 410-689) expressed in Escherichia coli, BL21 (DE3) assessed as dissociation rate constant by SPR assay.

In the case of `O=C1Cc2cc(Nc3ncc(C(F)(F)F)c(CCc4ccccc4)n3)ccc2N1`, the K in assay [1] was 1.8 10^5/M/s; in assay [2], 4.8 10^-2/s.
On the same counts, the results for `O=C1Cc2cc(Nc3ncc(C(F)(F)F)c(CCc4ccc(F)cc4)n3)ccc2N1` are 1.4 10^5/M/s and 14 10^-2/s.

The values above are taken from ChEMBL document CHEMBL5715961 (Cell Chem Biol, 2021).
